## Antibody variant affinities, Ab-14 heavy chain, assay 1

Target peptide (SARS-CoV-2 spike, HR2 region): PDVDLGDISGINAS

Parent: Ab-14, a human scFv built as VH, a 15-residue (Gly4Ser)3 linker, VL. Only the CDRs of the heavy chain vary.
VH: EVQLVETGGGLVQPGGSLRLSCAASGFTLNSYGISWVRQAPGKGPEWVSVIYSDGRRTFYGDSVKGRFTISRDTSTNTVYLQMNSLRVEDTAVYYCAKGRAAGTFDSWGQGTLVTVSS
VL: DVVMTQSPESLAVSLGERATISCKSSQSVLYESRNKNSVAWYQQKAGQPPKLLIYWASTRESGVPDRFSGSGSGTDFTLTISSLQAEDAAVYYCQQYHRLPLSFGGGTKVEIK

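Phage display of a naive human antibody library on the peptide gave the parent. In library AAYL49, one, two or three CDR residues were substituted; doubles and triples were drawn at random. AlphaSeq pools MATa yeast showing the antibodies with MATalpha yeast showing the peptide. Pairs that bind mate more often; barcode pairs of the diploids are counted by sequencing. Read counts were normalised to the haploid input and turned into Kd by a linear fit to BCL2-family pairs of known affinity, for each replicate. There are three technical replicates.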

Substitutions are numbered in sequence along the VH above, starting at 1 (not Kabat). Numbers give log10(Kd / nM), so 0 is 1 nM and 3 is 1 µM. Smaller is tighter. An entry "n.d." has no value in the source: the pair was not observed among the diploids in that replicate. This suggests poor binding but is not conclusive. Three control strains display no target. For library AAYL49, 15% of the pairings with them gave a signal, with a median of 4.06 and one signal in twenty below 2.83, so weak values seen in few replicates may be background. The control count says in how many pairings with the empty strains this scFv gave a signal, with their mean in brackets. In this assay the parent's reference entry averaged 0.65; its copy inside this library read 4.11 (one replicate of three).

| # | log10 Kd, replicates | control signals | changes |
|---|---|---|---|
| 1 | n.d. n.d. n.d. | 2/9 (3.41) | V64H A102W G103P |
| 2 | n.d. 5.20 n.d. | 5/9 (4.18) | L29N G33K |
| 3 | n.d. n.d. n.d. | 0/9 | L29I D106T S107G |
| 4 | 4.44 3.38 n.d. | 6/9 (4.42) | I51S G55N R56Y |
| 5 | 4.70 4.54 4.75 | 3/9 (4.77) | T28H G33V R56D |
| 6 | n.d. 3.62 4.48 | 4/9 (4.36) | T28W Y60H S63R |
| 7 | n.d. 5.31 4.06 | 4/9 (4.31) | G55P R57H F105L |
| 8 | 3.99 3.06 n.d. | 2/9 (4.63) | F27C G33A R57I |
| 9 | 1.06 1.10 1.28 | 0/9 | G26A A102E F105M |
| 10 | 3.63 3.86 n.d. | 6/9 (4.39) | S35C V64P S107M |
| 11 | n.d. n.d. n.d. | 1/9 (2.22) | S35M R57N A102S |
| 12 | n.d. n.d. n.d. | 0/9 | G61T S63D G103M |
| 13 | n.d. n.d. 4.29 | 1/9 (3.04) | G55A S63P G103I |
| 14 | n.d. n.d. n.d. | 0/9 | L29H D106L S107G |
| 15 | n.d. n.d. n.d. | 0/9 | I51H F59C |
| 16 | n.d. n.d. n.d. | 2/9 (3.29) | Y52M G55H R100H |
| 17 | n.d. 2.93 n.d. | 0/9 | V50G S53E V64T |
| 18 | 1.55 1.42 1.19 | 0/9 | T28L R56K R100E |
| 19 | n.d. n.d. n.d. | 0/9 | I34K Y52K V64P |
| 20 | n.d. n.d. n.d. | 0/9 | Y60L D62T V64K |
| 21 | n.d. n.d. n.d. | 0/9 | Y32F D54R R56G |
| 22 | n.d. n.d. 4.30 | 7/9 (3.88) | G33N S63M K65P |
| 23 | n.d. 2.39 n.d. | 0/9 | Y32V G33S F59K |
| 24 | n.d. n.d. n.d. | 1/9 (3.97) | V64K F105C |
| 25 | n.d. n.d. n.d. | 0/9 | T28M L29F D54P |
| 26 | n.d. 3.63 n.d. | 2/9 (5.48) | Y52P K65D G99P |
| 27 | n.d. n.d. n.d. | 2/9 (4.38) | Y32T Y60G D106R |
| 28 | n.d. n.d. 4.55 | 1/9 (4.08) | I34Q I51Q |
| 29 | n.d. n.d. n.d. | 0/9 | Y32P G99E S107P |
| 30 | n.d. 2.19 4.03 | 0/9 | T28G L29A |
| 31 | n.d. 4.96 n.d. | 2/9 (3.81) | I51Q G61E G99R |
| 32 | 5.39 n.d. n.d. | 1/9 (4.26) | Y52W G61E D62G |
| 33 | n.d. 4.06 4.12 | 0/9 | L29G I51D R56W |
| 34 | n.d. n.d. n.d. | 1/9 (3.62) | I34G I51M Y60S |
| 35 | n.d. n.d. n.d. | 0/9 | L29D S31M R100P |
| 36 | n.d. n.d. n.d. | 2/9 (3.90) | Y32S A102N T104S |
| 37 | 2.43 2.24 n.d. | 0/9 | T28Q K65T T104L |
| 38 | 5.31 n.d. n.d. | 1/9 (5.02) | Y32D R100G D106W |
| 39 | n.d. n.d. n.d. | 0/9 | S31A I51H Y60H |

For reference, 5 entries of the list once more:

| changes | log10 Kd, replicates | control signals |
|---|---|---|
| Y32P G99E S107P | n.d. n.d. n.d. | 0/9 |
| S35C V64P S107M | 3.63 3.86 n.d. | 6/9 (4.39) |
| L29N G33K | n.d. 5.20 n.d. | 5/9 (4.18) |
| I34G I51M Y60S | n.d. n.d. n.d. | 1/9 (3.62) |
| Y32V G33S F59K | n.d. 2.39 n.d. | 0/9 |

From the AlphaSeq antibody data of Engelhart et al. 2022 (doi:10.1038/s41597-022-01779-4), copy in the FLAb collection.